AlphaSeq binding of Ab-95 light chain variants to a spike HR2 peptide

Source: Engelhart et al. 2022 (doi:10.1038/s41597-022-01779-4), MIT Lincoln Laboratory and A-Alpha Bio; data file from the FLAb repository.

Target peptide (SARS-CoV-2 spike, HR2 region): PDVDLGDISGINAS

Parent: Ab-95, a human scFv built as VH, a (GGGGS)3 linker, VL. Only the CDRs of the light chain vary.
VH: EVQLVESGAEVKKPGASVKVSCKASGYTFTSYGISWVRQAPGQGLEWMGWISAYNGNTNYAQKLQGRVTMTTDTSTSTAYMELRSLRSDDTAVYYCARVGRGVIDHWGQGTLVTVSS
VL: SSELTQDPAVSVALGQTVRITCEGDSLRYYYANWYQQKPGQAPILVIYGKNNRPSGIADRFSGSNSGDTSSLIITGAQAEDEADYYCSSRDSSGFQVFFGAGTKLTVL

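Phage display of a naive human antibody library on the peptide gave the parent. In library AAYL52, one, two or three CDR residues were substituted; doubles and triples were drawn at random. Affinity was read by AlphaSeq, a pooled yeast mating assay with surface-displayed partners. Binding brings cells together so that they mate, and sequencing counts the barcode pairs among the diploids. Read counts were normalised to the haploid input and turned into Kd by a linear fit to BCL2-family pairs of known affinity, for each replicate. Each pool was mated in three replicate cultures.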

Each variant is given by its three light chain CDRs, as the data file delimits them; those of the parent are EGDSLRYYYAN, GKNNRPS, SSRDSSGFQVF.
Values are log10 of the apparent Kd in nM; lower means stronger binding.
The mean shown is taken over the replicates in which the pair was detected.
"ND" means that the variant was in the library but no mating with the target was seen in that replicate; the authors take this as a sign of poor binding, and no number exists.

| # | CDR-L1 | CDR-L2 | CDR-L3 | log10 Kd (nM) by replicate | log10 Kd (nM), mean | signal with controls |
|---|---|---|---|---|---|---|
| 1 | EGDSLRYYYLN | GKNSRPS | SSRDSSAFQVF | ND ND 4.03 | 4.03 | 2/9 (3.31) |
| 2 | EGDSLRSYYAN | GKNNRPS | SSRDSVGFQSF | 2.40 2.24 2.23 | 2.29 | 4/9 (4.16) |
| 3 | EGDSLQYYYAN | GKNNRPS | SSRTSSRFQVF | 4.91 3.85 4.33 | 4.36 | 5/9 (4.22) |
| 4 | EGDSLHYYYAN | GTNNRPS | SSRDSSGFQVE | 3.28 ND 3.58 | 3.43 | 4/9 (4.04) |
| 5 | EGDSLRYYYAC | GKNNRPS | SSRDSAGFQTF | ND 4.97 3.48 | 4.22 | 0/9 |
| 6 | EGDSLRYYYAN | WKNNRPG | SSRDSSGFQVG | 4.06 ND ND | 4.06 | 2/9 (4.88) |
| 7 | EGDSLRYYCAN | GKNNRPS | SCRDNSGFQVF | 2.66 2.36 2.39 | 2.47 | 5/9 (3.86) |
| 8 | EGDSLRYYYAN | YKNCRPS | SSRDSSGFQSF | 4.76 ND ND | 4.76 | 5/9 (3.65) |
| 9 | EGDSLRYYYIN | GKNNRPS | WSRVSSGFQVF | ND ND 3.95 | 3.95 | 1/9 (3.94) |
| 10 | EGYSLRYYHAN | GKNNRPS | ESRDSSGFQVF | 2.13 1.82 1.57 | 1.84 | 2/9 (3.90) |
| 11 | EGDSLRYYYAT | GKNNRCS | SSRDSSGFQVF | 4.14 ND ND | 4.14 | 0/9 |
| 12 | EGDSLRYYYAN | GKFKRPS | SSRDSSRFQVF | ND ND ND | ND | 3/9 (3.77) |
| 13 | EGDSLRYYYAN | GKNNRKS | SSRDSWGFQYF | 3.50 ND ND | 3.50 | 1/9 (3.94) |
| 14 | EGQSLCYYLAN | GKNNRPS | SSRDSSGFQVF | 2.60 2.52 2.66 | 2.59 | 6/9 (4.11) |
| 15 | EGDSLRYYYAN | WWNNRPS | WSRDSSGFQVF | 4.29 5.35 ND | 4.82 | 3/9 (4.11) |
| 16 | EGDSLRYYYAN | GKNNRPS | YQRDSSFFQVF | 3.08 4.04 ND | 3.56 | 3/9 (3.80) |
| 17 | EGDQLRYYRAN | GKNNRPS | SIRDSSGFQVF | 5.23 3.24 3.05 | 3.84 | 2/9 (3.49) |
| 18 | EGDSTRYYYWN | GKNNRPS | SSRTSSGFQVF | ND ND 3.35 | 3.35 | 1/9 (3.60) |
| 19 | EGDSLPYYYAM | GKNNRPS | SHRDSSGFQVF | 4.12 3.48 4.63 | 4.08 | 3/9 (4.33) |
| 20 | EGDSLRYYYAN | GSNNRPS | NCRDSSGFQVF | 2.65 2.97 2.89 | 2.84 | 3/9 (4.07) |
| 21 | EGDSRRYYYMN | GKNNRPS | SVRDSSGFQVF | 4.61 3.33 ND | 3.97 | 2/9 (3.83) |
| 22 | FGDSLRYYYAN | NANNRPS | SSRDSSGFQVF | 1.93 2.20 1.93 | 2.02 | 0/9 |
| 23 | EGDELRYYHAN | GKNNRPS | SSRDSSGFQVD | 3.83 3.24 4.63 | 3.90 | 5/9 (3.80) |
| 24 | RGDSLRYYYAN | HKNNRPS | SKRDSSGFQVF | ND ND ND | ND | 3/9 (3.40) |
| 25 | EGDSLRYYYHN | GKNNRPS | SSHDSSGFQGF | 5.51 ND ND | 5.51 | 3/9 (3.85) |
| 26 | EMDSLRYYYAN | GKNNRPS | SSPDPSGFQVF | 3.15 ND ND | 3.15 | 0/9 |
| 27 | EGSSLRYYYAN | GANNRPS | SSRDSSWFQVF | 2.32 2.20 2.19 | 2.24 | 4/9 (4.79) |
| 28 | EGDSLRYFYAN | GKNNEPS | SSRCSSGFQVF | 3.98 ND 3.27 | 3.63 | 3/9 (3.53) |
| 29 | EGDSLRGYYAN | GKNNRES | SSRDSMGFQVF | 2.04 2.18 1.54 | 1.92 | 1/9 (3.58) |
| 30 | EGDSLRYYYAR | GKWNRPA | SSRDSSGFQVF | 3.70 ND ND | 3.70 | 3/9 (4.09) |
| 31 | EGDSARYYYAN | GKNNRPS | DARDSSGFQVF | 2.02 2.24 1.86 | 2.04 | 3/9 (4.21) |
| 32 | EGDSLRYYEAN | GKNNRPS | SSRDSSGFKVF | 1.20 1.21 0.70 | 1.04 | 6/9 (3.66) |
| 33 | EGDSLRYYYHN | VKNNRPS | SSRVSSGFQVF | ND 5.05 ND | 5.05 | 2/9 (5.09) |
| 34 | EGDSLRYYYAN | GKNGRPS | SSRDSSGFQVF | 2.08 1.99 1.59 | 1.88 | 2/9 (3.94) |
| 35 | EGDSLRYYYAN | GKNNRPS | SVRDSSNPQVF | 2.36 2.38 1.96 | 2.23 | 2/9 (3.33) |
| 36 | EGDSLRYYYAN | GKNNSPS | SSRDSHGFQSF | 2.90 ND ND | 2.90 | 0/9 |
| 37 | EGDSLRYYYAN | GLNNRPS | SSNDSSGFQVY | 4.14 ND ND | 4.14 | 2/9 (3.49) |
| 38 | EGDSLRYYWAN | GKNNRPS | SSRHSSHFQVF | 2.45 2.89 3.39 | 2.91 | 0/9 |
| 39 | HGESLRYYYAN | GKNNRPS | SSRDSSVFQVF | 2.36 2.08 1.75 | 2.06 | 4/9 (4.17) |

Excerpt, the first 4 entries:

| CDR-L1 | CDR-L2 | CDR-L3 | log10 Kd (nM) by replicate | log10 Kd (nM), mean | signal with controls |
|---|---|---|---|---|---|
| EGDSLRYYYLN | GKNSRPS | SSRDSSAFQVF | ND ND 4.03 | 4.03 | 2/9 (3.31) |
| EGDSLRSYYAN | GKNNRPS | SSRDSVGFQSF | 2.40 2.24 2.23 | 2.29 | 4/9 (4.16) |
| EGDSLQYYYAN | GKNNRPS | SSRTSSRFQVF | 4.91 3.85 4.33 | 4.36 | 5/9 (4.22) |
| EGDSLHYYYAN | GTNNRPS | SSRDSSGFQVE | 3.28 ND 3.58 | 3.43 | 4/9 (4.04) |

In this assay the parent's reference entry averaged 2.31; its copy inside this library read 2.25.
Background: pairings of library AAYL52 with three empty control strains gave a value in 28% of cases (median 3.91, 5th percentile 2.90). Values in that range, when seen in few replicates, are hard to tell from nonspecific mating. For each scFv, signals with the empty controls are counted beside the result, with their mean in brackets.